From US6800658B2, “Substituted diphenyl indanone, indane and indole compounds and analogues thereof useful for the treatment of prevention of diseases characterized by abnormal cell proliferation” (Children's Medical Center Corporation, priority 1997, dated 2004)

System: U118MG
Assay: SRB antiproliferative assay, U118MG
Type: cell-based
Settings: Homo sapiens, U-118-MG, 120 h; CNS; 5% FCS, 5 Day Incubation
Excerpt: The cells were passaged using Trypsin (Gibco).

In the case of O/N=C1\CC(c2ccc(Cl)cc2)(c2ccc(Cl)cc2)c2ccc(Cl)cc21 [Compound 11], the IC50 is reported as > 10 µM.
